# Binding of CDR-mutated scFvs to a peptide of the spike HR2 region

Data: MIT Lincoln Laboratory AlphaSeq set, Li et al. 2023, doi:10.1038/s41467-023-39022-2, as distributed in FLAb.

All variants were tested on one target, the spike HR2 peptide PDVDLGDISGINAS (SARS-CoV-2).

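These sequences belong to a second round, designed from the earlier measurements on random variants of the parent. Several design methods are mixed in this list. In AlphaSeq, yeast of one mating type display the scFv and yeast of the other type display the target. Mating (16 h, 30 °C) was followed by selection of diploids and sequencing of their barcodes. Scores were corrected for input abundance and mapped to Kd with protein pairs of known affinity run in the same pool. Each pool was mated in six replicate cultures.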

Parent scFv Ab-14: VH joined to VL by three GGGGS repeats. Changes lie in the light chain CDRs alone.
VH: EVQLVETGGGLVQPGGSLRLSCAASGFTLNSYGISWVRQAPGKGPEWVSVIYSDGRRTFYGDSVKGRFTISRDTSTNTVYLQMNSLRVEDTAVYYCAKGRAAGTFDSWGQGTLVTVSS
VL: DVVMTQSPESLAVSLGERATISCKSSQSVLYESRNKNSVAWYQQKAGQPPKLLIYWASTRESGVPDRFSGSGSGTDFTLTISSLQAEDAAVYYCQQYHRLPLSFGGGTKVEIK

Each variant is given by its three light chain CDRs, as the data file delimits them; those of the parent are KSSQSVLYESRNKNSVA, WASTRES, QQYHRLPLS.
The Kd shown is the geometric mean over detected replicates; a lower Kd is a better binder.
An entry "nd" has no value in the source: the pair was not observed among the diploids in any replicate. This suggests poor binding but is not conclusive.
Of ten entries with the parent sequence, four were seen in most replicates (averages 2.2 nM to 240 nM), three in one and three in none, so single entries are noisy.
Background: pairings of all light chain designs with three empty control strains gave a value in 4% of cases (median 430 nM, 5th percentile 38 nM). Values in that range, when seen in few replicates, are hard to tell from nonspecific mating.
The authors' rule: three or more of the six replicates give a measured affinity, fewer mean a poor binder.
A sequence measured in both rounds can read differently, since the two assays cover different ranges.

Kd (apparent),detected,CDR-L1,CDR-L2,CDR-L3
2.0 nM,6 of 6,HIPIKLPGNWKMMDSVA,HSALRAE,QQYARLPLM
2.3 nM,6 of 6,LIKGMVDGQYYKQNNIA,DSEERDR,QQYNQLPLS
1.5 nM,6 of 6,KSSISVEYQDRLSNSVA,QASQRES,QQYHRLPLS
30 nM,1 of 6,KSSHSQLYESRNKPSVA,KASTRES,QQYHRLPIS
15 nM,6 of 6,KSSEPVLYESLNKNSVA,WASTRES,QQYHRLPLS
170 nM,3 of 6,IVSQLMLWGKSAKNSIA,EAVTRFN,QQYDRLPLF
6.5 nM,6 of 6,KVEQLVLPEDRNANSVA,NASTRED,QQYHRLPLS
680 pM,6 of 6,KLSQSQLYESRNKNSVA,NASTRLM,QQYHRLPLS
1.3 nM,6 of 6,KLYQSGLYESRNKNSVA,SASTRES,QQYFRLPLS
650 pM,6 of 6,KISQSVLYESRNKNSVA,DASQRES,QQYHRLPLS
4.1 nM,6 of 6,KSSGQVCYGDRMKNSVA,NASTREQ,QQYHRLPLS
3.1 nM,6 of 6,KLSQMYEYESRWKNSVA,HASTREL,QQYHRLPLS
nd,0 of 6,KFYWSGLYESRDKRSVA,WDSTRVS,QQYHRLPLS
430 pM,6 of 6,KLSGSVLFESRNKNSVA,NASTRES,QQYHRLPLS
750 pM,6 of 6,KWDQEVDGQSRNKNSVA,DASTREW,QQYHRLPLS
2.0 nM,6 of 6,KLTMITGLEKVSKNNVA,EMETREQ,QQYNRLPLS
140 nM,2 of 6,KSSQSWEPESRNKNSVA,WASTRES,QQYHRKPLS
360 pM,6 of 6,KLSQSVLYEMRNKNSVA,GASTRES,QQYHRLPLS
1.0 nM,6 of 6,IVSQSVLMESRNKNSVA,DASTRES,QQYHRLPLS
9.4 nM,6 of 6,KSSQSVLDESRNKNSVA,QASTREE,QQYHRMPLS
1.4 nM,6 of 6,KFYPSYLYESRNKNSVA,QASTRES,QQYHLLPLS
6.6 nM,6 of 6,KLSNSYEYESNNSNSVA,NASQREH,QQYHRLPLR
1.7 nM,6 of 6,KIQQSVYYESLNQNSVA,HASTRLQ,QQYHRLPLS
210 nM,1 of 6,KSSQSVTYESRNRNSVA,WASTRES,QQYHRLPLA
26 nM,6 of 6,KSSQSVLNESKNKNSVA,WASIRES,VQYHRLPLI
540 pM,6 of 6,KLSQSMLYESRNKNSVA,NASQRED,QQYHRLPLS
20 nM,6 of 6,QMKASLLQGIYIQDSVA,SSDIREL,QQYHHLPLS
410 pM,6 of 6,KLEQWTLYESRNKNSVA,NASQRES,QQYKRLPLS
2.4 nM,6 of 6,KSSQSVLYESRNKNSVA,DASTRES,QQYCRLPLS
16 nM,6 of 6,HIGGVLNGENVKGRSVA,HMNTRVD,QQYDRLPLS
3.0 nM,6 of 6,MISDLTSYGLRNVNSVA,DLSTRGS,QQYDRLPLS
1.7 nM,6 of 6,TLGDSTRMESRKKNSIA,DMSTRES,QQYHRLPLS
780 pM,6 of 6,KFEQLVLPEDRNKNSVA,NASTRED,QQYHRLPLS
nd,0 of 6,SMQLDQIEGNQQQNSIA,GESIADM,QHYERLPLT
38 nM,1 of 6,MSSQSQLYESENKNSVA,WASIRFS,QQYHRLPLS
3.0 nM,6 of 6,KLMWSVMLESRNKNSVA,QASTRMS,QDYHRLPLS
2.4 nM,6 of 6,KSSISYLYGSRNKNSVA,EASTRES,QQYHRLPLM
nd,0 of 6,KSSQSVEYESRNCNSVA,WDSTRES,QQYHRNPGS
25 nM,6 of 6,KSSQSVLEESRNKNSVA,FASTRES,QQYHRLPLS
2.0 nM,6 of 6,RIRESMGYSHEGRRNIA,QADIREI,QQYSQLPLF
290 nM,4 of 6,KVSEFMRGLMSKQDSIA,DNVTRNS,QQYDRLPLS
800 pM,6 of 6,KFSQSVLYESRNKNSVA,EASTRCS,QQYHRLPLS
690 pM,6 of 6,KISQSYLYESRNKNSVA,NASTRLS,QQYHRLPLS
2.6 nM,6 of 6,QLSSITGHMQIEKNNVA,EMETREN,QQYDRLPLS
2.2 nM,5 of 6,IISGQMLMESRNKNSVA,NAETREY,QHYDRLPLS
400 pM,6 of 6,KVSQSVLYESRNKNSVA,EASTRES,QQYHRLPLK
250 nM,6 of 6,KLSQITGHMSMSKDNVA,EMETREN,QQYDRLPLS
60 nM,6 of 6,MISQLMNMGQFAINSVA,QASLRCN,QQYDRLPLT
42 nM,6 of 6,KLRNEAIGWYRNGASIA,DENYRVD,QQYHHLPLL

The 7 strongest on average among those seen in every replicate, once more:

| CDR-L1 | CDR-L2 | CDR-L3 | Kd (apparent) | detected |
|---|---|---|---|---|
| KLSQSVLYEMRNKNSVA | GASTRES | QQYHRLPLS | 360 pM | 6 of 6 |
| KVSQSVLYESRNKNSVA | EASTRES | QQYHRLPLK | 400 pM | 6 of 6 |
| KLEQWTLYESRNKNSVA | NASQRES | QQYKRLPLS | 410 pM | 6 of 6 |
| KLSGSVLFESRNKNSVA | NASTRES | QQYHRLPLS | 430 pM | 6 of 6 |
| KLSQSMLYESRNKNSVA | NASQRED | QQYHRLPLS | 540 pM | 6 of 6 |
| KISQSVLYESRNKNSVA | DASQRES | QQYHRLPLS | 650 pM | 6 of 6 |
| KLSQSQLYESRNKNSVA | NASTRLM | QQYHRLPLS | 680 pM | 6 of 6 |